Patent publication US8846739B2, “TGR5 agonists” (Exelixis Patent Company LLC, priority 2009, dated 2014)
pEC50: −log10 of the molar value. Where two headings read alike, the source gives them in different places.

Protein sequences, listed by entry. Tags and fused reporters are not part of them.
UniProt Q8TDU6, whole entry: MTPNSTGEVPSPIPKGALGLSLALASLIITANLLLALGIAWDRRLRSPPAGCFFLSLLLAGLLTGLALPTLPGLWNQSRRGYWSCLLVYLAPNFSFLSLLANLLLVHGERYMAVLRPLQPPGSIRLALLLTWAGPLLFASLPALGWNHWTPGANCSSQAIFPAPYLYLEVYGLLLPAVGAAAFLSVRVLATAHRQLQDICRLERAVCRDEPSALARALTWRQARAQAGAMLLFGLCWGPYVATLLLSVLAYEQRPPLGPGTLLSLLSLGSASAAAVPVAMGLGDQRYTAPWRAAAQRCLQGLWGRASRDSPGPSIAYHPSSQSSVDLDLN

Assays:
[1] = biological target: h-TGR5 (Homo sapiens, UniProt Q8TDU6); assay: TGR5 cAMP Assay using Cisbio cAMP Dynamic 2 htrf assay kit
[2] = biological target: human TGR5 (h-TGR5) (Homo sapiens, UniProt Q8TDU6); assay: TGR5/CRE-Luciferase Assay
[3] = read-out: cAMP (EC50), hTGR5CRE-luc HEK 293 cells, tested form: 2,2,2-trifluoroacetate
[4] = read-out: CRE-Luc Agonist (EC50), HEK 293 hTGR5/CRE-Luc cells, 6 hours incubation, tested form: 2,2,2-trifluoroacetate

COc1cc(C(C)(C)c2cnc(SCc3c(F)cc(S(=O)(=O)N(CCC[N+](C)(C)C)C(C)(C)C(=O)O)cc3F)n2-c2ccc(F)cc2)ccc1Cl
pEC50 ([1]; read-out: cAMP (EC50), hTGR5CRE-luc HEK 293 cells, tested form: TFA salt): > 7.00 | pEC50 ([2]; read-out: CRE-Luc Agonist (EC50), HEK 293 hTGR5/CRE-Luc cells, 6 hours incubation, tested form: TFA salt): > 7.00

COc1cc(C(C)(C)c2cnc(SCc3c(F)cc(S(=O)(=O)N(CCCC[N+](C)(C)C)[C@H](C)C(=O)O)cc3F)n2-c2ccc(F)cc2)ccc1Cl
pEC50 [1, 3]: > 7.00 | pEC50 [2, 4]: > 7.00

CCN(CCC[N+](C)(C)C)S(=O)(=O)c1cc(F)c(CSc2ncc(C(C)(C)c3ccc(Cl)c(OC)c3)n2-c2ccc(F)cc2)c(F)c1
pEC50 [1, 3]: > 7.00 | pEC50 [2, 4]: > 7.00
